Results published in ChEMBL document CHEMBL1129892, “Tetracyclic analogues of [+]-S 14297: Synthesis and determination of affinity and selectivity at cloned human dopamine D3 vs D2 receptors” (Bioorg Med Chem Lett, 1997).

Protein sequences, listed by entry. Tags and fused reporters are not part of them.
UniProt P35462, whole entry: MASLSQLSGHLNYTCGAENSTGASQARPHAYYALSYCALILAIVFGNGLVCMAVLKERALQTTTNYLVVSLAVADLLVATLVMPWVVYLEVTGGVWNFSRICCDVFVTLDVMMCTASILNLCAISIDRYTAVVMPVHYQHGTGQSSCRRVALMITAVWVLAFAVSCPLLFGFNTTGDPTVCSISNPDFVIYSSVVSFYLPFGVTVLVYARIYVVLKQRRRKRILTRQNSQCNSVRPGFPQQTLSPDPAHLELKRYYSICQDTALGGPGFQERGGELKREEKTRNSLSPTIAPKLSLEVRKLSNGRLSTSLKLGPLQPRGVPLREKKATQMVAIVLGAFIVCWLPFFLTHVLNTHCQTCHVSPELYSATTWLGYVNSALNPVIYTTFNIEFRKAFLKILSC

Biological target: D(3) dopamine receptor (Homo sapiens, UniProt P35462)
Test: biochemical

| Structure (SMILES) | Ki [nM] |
| --- | --- |
| CCCN1CCO[C@@H]2c3cc4c(cc3OC[C@H]21)CCO4 | 501 |
| CCCN1CCO[C@@H]2c3cc4c(cc3CC[C@H]21)CCO4 | 10 |
